{"source": "patent US20160183564A1", "about": "(priority 2013, published 2016)", "test_system": "VFA production", "conditions": "dose 0.005% DM", "note": "Only a part of the results on these compounds is given; other tests are left out."}
{"smiles": "O=[N+]([O-])OCCCO[N+](=O)[O-]", "values": [{"measurement": "VFA profile (as percentage of total VFA) ace.", "setting": "acetate", "value": "59 percentage of total VFA"}, {"measurement": "VFA profile (as percentage of total VFA) But.", "setting": "butyrate", "value": "6 percentage of total VFA"}, {"measurement": "VFA profile (as percentage of total VFA) Prop.", "setting": "propionate", "value": "34 percentage of total VFA"}]}
